Laboratory results published in patent publication US8906832B2, “Quantitative analysis of carbohydrate-protein interactions using glycan microarrays: determination of surface and solution dissociation constants” (Academia Sinica, priority 2008, dated 2014).
pKd: −log10 of the molar value.

Biological target: T1, Con A (Canavalia ensiformis, UniProt P02866)
T1 construct: purchased Sigma
Test: Competitive binding assay on glycan microarray (solution KD / Ki)
Conditions: competition of free oligomannose with the corresponding oligomannose surface

Substance: Man9
- pKd: 6.89
